# Target: D(2) dopamine receptor (Mus musculus, UniProt P61168)
# Amino acid sequences for entries named in this document (tags omitted).
# UniProt P61168, whole entry: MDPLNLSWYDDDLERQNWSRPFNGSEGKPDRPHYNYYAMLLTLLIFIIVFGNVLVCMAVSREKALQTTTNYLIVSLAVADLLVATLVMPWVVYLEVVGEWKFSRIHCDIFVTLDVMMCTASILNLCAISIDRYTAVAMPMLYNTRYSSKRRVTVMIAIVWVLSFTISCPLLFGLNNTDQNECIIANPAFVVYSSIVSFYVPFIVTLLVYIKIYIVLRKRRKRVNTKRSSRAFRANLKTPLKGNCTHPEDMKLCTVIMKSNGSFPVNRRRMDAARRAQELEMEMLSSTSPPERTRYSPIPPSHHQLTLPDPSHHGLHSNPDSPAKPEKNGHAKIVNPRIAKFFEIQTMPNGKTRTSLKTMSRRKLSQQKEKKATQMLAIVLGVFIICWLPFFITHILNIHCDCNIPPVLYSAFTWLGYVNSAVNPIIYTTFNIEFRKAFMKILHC
smiles,measurement,value
CC(C)(C)[C@]1(O)CCN2C[C@H]3c4ccccc4CCc4cccc(c43)[C@@H]2C1,Ki,0.21 nM

# — BindingDB's records for PubMed 2017157 (Medical Research Service, 1991)
